Four compounds from ChEMBL document CHEMBL1149560, “Discovery of a potent CDK2 inhibitor with a novel binding mode, using virtual screening and initial, structure-guided lead scoping” (Bioorg Med Chem Lett, 2007) can be followed below.

In the assay the target is Cyclin-dependent kinase 2 (Homo sapiens, UniProt P24941). Briefly: Inhibition of CDK2.
For orientation: IC50 means the concentration at which inhibition is half-maximal. Read a low IC50 as higher potency. `N=C1NC(=O)/C(=C/c2ccc(-c3ccc(S(N)(=O)=O)c(C(F)(F)F)c3)o2)S1`: the IC50 came out at 610 nM.

In turn, `C/C(=C1/SC(=N)NC1=O)c1ccc(-c2ccc(S(N)(=O)=O)cc2)o1` showed an IC50 of 30 nM.

In the case of `N=C1NC(=O)/C(=C/c2ccc(-c3ccc(C(=O)O)cc3)o2)S1`, the concentration for half-maximal inhibition (IC50) amounted to 47000 nM.

Compound `CNS(=O)(=O)c1ccc(-c2ccc(/C=C3\SC(=N)NC3=O)o2)cc1` came in with an IC50 of 120 nM.
